In patent US20100075343A1, “NOVEL PEPTIDES” (priority 2007, published 2010):

Test system: antiserum against ESPGPERVW peptide of human VGF
Type: binding
Conditions: 1, 10, and 100 pmol of the peptides
Method: Namely, to 100 μL of antiserum diluted 9×10^5 folds with RIA buffer, 100 μL of RIA buffer containing a fixed amount of [^125I]-labeled Peptide 1 (approximately 20000 cpm, 500-550 Bq, approximately 9 fmol in terms of peptide amount) and 100 μL of RIA buffer solutions each containing a sequentially diluted VGF-derived peptide were added, this was incubated at 4° C. for 40 hours, and the labeled Peptide 1 and VGF-derived peptide were competitively bound to the antibody in the antiserum. […] Reactions for non-specific binding were performed in quadruplicates, and the other reactions were performed in duplicates, and for each of the reactants, the immune complex was precipitated as in the above-mentioned antibody titer measurements, and its radioactivity (cpm) was measured. The average radioactivity of non-specific binding reaction is defined as non-specific binding level N, the radioactivity value for each VGF-derived peptide addition reaction is defined as Y, and the radioactivity value of maximum binding reaction is defined as Z. The percentage ratio (B/B0) of antiserum specific binding level (B) with peptide addition to the maximum binding level (B0), was determined using the following formula. […]

inhibition of binding of the antiserum to labeled peptide: none of these peptides showed inhibition
Substance: calcitonin gene-related peptide
